Laboratory results as given in patent publication US20180078656A1, “CRYPTOPHYCIN-BASED ANTIBODY-DRUG CONJUGATES WITH NOVEL SELF-IMMOLATIVE LINKERS” (priority 2015, published 2018).

Experiments:
[1] = system: MCF7 cells; experiment: Cell viability assay (CellTiter-Glo), MCF7, 96 h; format: cell-based, human; details: Her2-low MCF7, 96 h incubation; antibodies and ADC
Method: (§1) Tumor cell lines (breast carcinoma cell lines SKBR-3 and MCF7 and colon carcinoma cell line HCT116) were obtained from American Type Culture Collection and were grown according to standard protocols. SKBR-3 cells are known to express high Her2 levels and therefore are trastuzumab-sensitive, while MCF7 and HCT116 cells show low Her2 expression and therefore are trastuzumab-resistant. The effects of the cryptophycin-55-glycinate ADC conjugate on tumor cell viability were assessed using the CellTiter-Glo® Luminescent Cell Viability Assay (Promega), according to the manufacturer protocol. […] Cells were plated in black-walled 96-well plates (5000 cells per well for SKBR-3 and MCF7; 2000 cells per well for HCT116) and allowed to adhere overnight at 37° C. in a humidified atmosphere of 5% CO2. […] Five to eight triplicate datapoints were recorded for each experimental condition. At the end of the incubation luminescence was measured using a Perkin Elmer Wallac 1450 MicroBeta TriLux detector. Compound cytotoxicity was evaluated in comparison to cells treated with PBS (antibodies) or 0.1% DMSO (compounds). CC50 values were calculated by fitting viability data with a four-parameter logistic equation using a Kaleidagraph software.

[2] = system: SK-BR3 cells; experiment: Cell viability assay (CellTiter-Glo), SK-BR3; format: cell-based; details: chosen experimental conditions (concentration ranges, incubation time)
Method: as §1, with “SKBR-3 cells are known to express high Her2 levels and therefore are trastuzumab-sensitive, while MCF7 and HCT116 cells show low Her2 expression and therefore are trastuzumab-resistant.” left out

[3] = system: HCT116 cells; experiment: Cell viability assay (CellTiter-Glo), HCT116; format: cell-based; details: Her2-low HCT116, 96 h incubation; antibodies and ADC
Method: as §1

Row | Substance | MCF7 CC50 (in words) [1] | effect on SKBR-3 cell viability [2] | HCT116 CC50 (in words) [3]
1 | Trastuzumab: recombinant humanized monoclonal antibody binding the extracellular domain of HER2 | inactive | about 30% | inactive
2 | Trastuzumab reduced: S-S reduced trastuzumab control sample left unconjugated | inactive | – | inactive
3 | Cry-55-Gly-mAb_Peak2: trastuzumab conjugated to Maleimide-PEG-Val-Cit-Pro-Gly-Cryptophycin-55-glycinate, monomeric form | inactive | – | inactive
4 | Cry-55-Gly-mAb_Peak1: trastuzumab conjugated to Maleimide-PEG-Val-Cit-Pro-Gly-Cryptophycin-55-glycinate, oligomeric form | inactive | – | inactive
